Experimental data published in patent publication US11096979B2, “Pharmaceutical composition for preventing or treating liver diseases, containing licorice extract containing glycyrrhizin and liquiritin” (NOVAREX CO., LTD., priority 2016, dated 2021).

Tested on: cultured hepatocytes (HepG2)
Assay: Cell viability of HepG2 cells treated with single components or t-BHP
Conditions: HepG2, 3 hr and 24 hr after treatment, FIGS. 5A and 5B

In the case of `CC(C)(C)OO` [t-BHP, t-butyl hydroperoxide], the “hepatotoxicity depending on dose and treatment time” value is reported as “dose-dependent hepatotoxicity”.
